Laboratory results as given in patent US9901578B2, “Combination of 10-propargyl-10-deazaaminopterin and erlotinib for the treatment of non-small cell lung cancer” (Allos Therapeutics, Inc., priority 2007, dated 2018).

Target: T1, human recombinant DHFR (Homo sapiens, UniProt P00374)
T1 sequence (P00374 1-187): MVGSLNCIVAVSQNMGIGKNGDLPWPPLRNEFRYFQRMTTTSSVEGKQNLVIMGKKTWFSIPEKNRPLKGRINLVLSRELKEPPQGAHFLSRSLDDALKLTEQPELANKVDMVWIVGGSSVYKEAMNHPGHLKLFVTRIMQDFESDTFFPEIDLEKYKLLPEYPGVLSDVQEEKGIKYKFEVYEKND
Test: DHFR inhibition in a cell-free assay
Format: biochemical

- Ki: > 200 nM
Compound: Nc1nc2[nH]cc(CCc3ccc(C(=O)N[C@@H](CCC(=O)O)C(=O)O)cc3)c2c(=O)[nH]1 [Alimta, pemetrexed]
